Source: patent US20050043515A1, “Tobacco-specific nitrosamine detection assays and reagents” (priority 2003, published 2005)

System: monoclonal antibody 245J15
Experiment: Competitive ELISA for total TSNAs using monoclonal antibody 245J15
Type: binding, mice
Conditions: NNK amount for 50% inhibition divided by test compound amount, x100
Method: Microtiter plates (Nunc, Maxisorp) were coated by adding 100 μl per well of goat anti mouse IgG Fc specific (Jackson Immunoresearch, West Grove, Pa.) at 2.5 micrograms per milliliter (μg/ml) in phosphate buffered saline (Sigma Chemical Co.) and allowing the solution to sit overnight. The next day, contents were discarded and unreacted sites on the plastic wells were blocked with 300 μl per well of PBT (1% Bovine Serum Albumen (Sigma Chemical Co.), 0.05% Tween 20 (Sigma Chemical Co.) in PBS) for one hour. Contents were again discarded and 100 μl was added per well of a 1/10,000 dilution of hybridoma culture supernatant of monoclonal antibody 245B5. Wells were then incubated one hour at room temperature. Contents of the wells were again discarded and wells washed three times with PBS with 0.05% Tween (PT). Aliquots containing 50 μl of test compounds diluted in PBT were added to the wells in duplicate, followed in less than five minutes by 50 μl of NNK conjugated to horseradish peroxidase (5 μg of horseradish peroxidase/ml). […] Color was read at 650 nm after fifteen minutes in a microplate reader (SpectraMax Plus, Molecular Devices, Sunnyvale, Calif.). […]
The affinity of monoclonal antibodies 245B5 and 245J15 to the N-nitroso group on compounds was evaluated using the immunoassay of Example 3 and the immunoassay of Example 4. […]

## O=C(O)C1CCCNC1 (stereo not shown) [Nipecotic Acid]
  % Crossreactivity: 0%
